Reference: patent publication EP4821509A1, “USE OF QUINAZOLINE COMPOUND AND THIRD-GENERATION EGFR INHIBITOR IN COMBINED DRUG FOR TREATING NON-SMALL CELL LUNG CANCER” (dated 2026)

What was measured:
[1] = system: BaF3 EGFR Del19 cells; experiment: Pharmacodynamics in subcutaneous mouse xenograft model of BaF3 EGFR Del19 tumor cells; settings: for inhibition of tumor growth compared with control group: 18 days after administration, single agents, oral, result in words
[2] = system: BaF3 EGFR L858R cells; experiment: Pharmacodynamics in subcutaneous mouse xenograft model of BaF3 EGFR L858R tumor cells; settings: for inhibition of tumor growth compared with control group: single agents, oral, result in words
[3] = day 21 after administration, gavage, osimertinib 5 mg/kg once a day, quinazoline derivative (I) 10 mg/kg twice a day, alone or combined
[4] = day 18 after administration, gavage, osimertinib 5 mg/kg once a day, quinazoline derivative (I) 10 mg/kg twice a day, alone or combined

Structure (SMILES): C=CC(=O)Nc1cc(Nc2nccc(-c3cn(C)c4ccccc34)n2)c(OC)cc1N(C)CCN(C)C
- inhibition of tumor growth compared with control group [1]: good inhibition of tumor growth
- T/C (%) [2, 3]: 1.3%
- inhibition of tumor growth compared with control group [2]: good inhibition of tumor growth

Structure (SMILES): C#Cc1cccc(Nc2ncnc3cc(OC)c(O[C@@H]4CCN(C)CC4(F)F)cc23)c1F
- inhibition of tumor growth compared with control group [1]: good inhibition of tumor growth
- Relative tumor proliferation rate T/C (%) [1, 4]: 0.6%
- TGI (%) [1, 4]: 102.8%
- Tumor volume (mm^3) (day 18 after administration) [1, 4]: 24±7 mm^3
- Tumor volume (mm^3) (day 35 after administration ) ([1]; day 35 after administration, gavage, osimertinib 5 mg/kg once a day, quinazoline derivative (I) 10 mg/kg twice a day, alone or combined): 260±44 mm^3
- T/C (%) [2, 3]: 2.1%
- TGI (%) [2, 3]: 104.0%
- Tumor volume (mm^3) (day 21 after administration) [2, 3]: 46±13 mm^3
- Tumor volume (mm^3) (day 60 after administration) ([2]; day 60 after administration, gavage, osimertinib 5 mg/kg once a day, quinazoline derivative (I) 10 mg/kg twice a day, alone or combined): 974±365 mm^3
- inhibition of tumor growth compared with control group [2]: good inhibition of tumor growth
